Results published in patent publication US20090304692A1, “TRIAZINE COMPOUNDS AS PI3 KINASE AND MTOR INHIBITORS” (Wyeth, priority 2008, published 2009).
pIC50: −log10 of the molar value. Where two headings read alike, the source gives them in different places.

Sequences of proteins named here, by UniProt entry; tags and fusion partners are left off.
UniProt P48736, whole entry, species assumed: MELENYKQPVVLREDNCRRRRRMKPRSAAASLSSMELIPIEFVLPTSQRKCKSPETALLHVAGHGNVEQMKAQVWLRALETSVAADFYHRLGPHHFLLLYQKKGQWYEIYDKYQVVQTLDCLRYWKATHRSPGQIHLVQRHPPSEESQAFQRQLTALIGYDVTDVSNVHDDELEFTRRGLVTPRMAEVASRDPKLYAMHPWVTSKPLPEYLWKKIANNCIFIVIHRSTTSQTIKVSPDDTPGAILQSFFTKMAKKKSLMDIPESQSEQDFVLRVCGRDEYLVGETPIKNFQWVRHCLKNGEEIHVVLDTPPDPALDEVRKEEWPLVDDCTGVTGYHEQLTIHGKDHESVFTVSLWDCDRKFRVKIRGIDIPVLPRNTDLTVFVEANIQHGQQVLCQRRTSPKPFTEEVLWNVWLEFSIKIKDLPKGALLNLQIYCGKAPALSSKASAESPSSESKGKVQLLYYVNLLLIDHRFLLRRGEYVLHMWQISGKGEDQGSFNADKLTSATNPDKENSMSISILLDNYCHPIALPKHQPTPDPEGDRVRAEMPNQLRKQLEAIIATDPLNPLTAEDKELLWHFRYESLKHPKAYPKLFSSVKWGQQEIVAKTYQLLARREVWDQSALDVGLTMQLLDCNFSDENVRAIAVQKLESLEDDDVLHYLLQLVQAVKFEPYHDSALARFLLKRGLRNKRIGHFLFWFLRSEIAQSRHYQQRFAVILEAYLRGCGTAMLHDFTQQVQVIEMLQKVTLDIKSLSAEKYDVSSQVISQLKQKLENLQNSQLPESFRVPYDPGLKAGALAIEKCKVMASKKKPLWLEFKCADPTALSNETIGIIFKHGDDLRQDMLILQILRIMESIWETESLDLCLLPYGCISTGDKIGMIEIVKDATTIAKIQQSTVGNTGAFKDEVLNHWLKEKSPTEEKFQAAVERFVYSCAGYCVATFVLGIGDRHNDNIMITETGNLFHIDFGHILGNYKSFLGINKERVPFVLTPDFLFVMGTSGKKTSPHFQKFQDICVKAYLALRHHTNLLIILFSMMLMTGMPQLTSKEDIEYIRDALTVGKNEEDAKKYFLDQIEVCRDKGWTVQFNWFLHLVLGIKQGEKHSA
UniProt P42336, whole entry, species assumed: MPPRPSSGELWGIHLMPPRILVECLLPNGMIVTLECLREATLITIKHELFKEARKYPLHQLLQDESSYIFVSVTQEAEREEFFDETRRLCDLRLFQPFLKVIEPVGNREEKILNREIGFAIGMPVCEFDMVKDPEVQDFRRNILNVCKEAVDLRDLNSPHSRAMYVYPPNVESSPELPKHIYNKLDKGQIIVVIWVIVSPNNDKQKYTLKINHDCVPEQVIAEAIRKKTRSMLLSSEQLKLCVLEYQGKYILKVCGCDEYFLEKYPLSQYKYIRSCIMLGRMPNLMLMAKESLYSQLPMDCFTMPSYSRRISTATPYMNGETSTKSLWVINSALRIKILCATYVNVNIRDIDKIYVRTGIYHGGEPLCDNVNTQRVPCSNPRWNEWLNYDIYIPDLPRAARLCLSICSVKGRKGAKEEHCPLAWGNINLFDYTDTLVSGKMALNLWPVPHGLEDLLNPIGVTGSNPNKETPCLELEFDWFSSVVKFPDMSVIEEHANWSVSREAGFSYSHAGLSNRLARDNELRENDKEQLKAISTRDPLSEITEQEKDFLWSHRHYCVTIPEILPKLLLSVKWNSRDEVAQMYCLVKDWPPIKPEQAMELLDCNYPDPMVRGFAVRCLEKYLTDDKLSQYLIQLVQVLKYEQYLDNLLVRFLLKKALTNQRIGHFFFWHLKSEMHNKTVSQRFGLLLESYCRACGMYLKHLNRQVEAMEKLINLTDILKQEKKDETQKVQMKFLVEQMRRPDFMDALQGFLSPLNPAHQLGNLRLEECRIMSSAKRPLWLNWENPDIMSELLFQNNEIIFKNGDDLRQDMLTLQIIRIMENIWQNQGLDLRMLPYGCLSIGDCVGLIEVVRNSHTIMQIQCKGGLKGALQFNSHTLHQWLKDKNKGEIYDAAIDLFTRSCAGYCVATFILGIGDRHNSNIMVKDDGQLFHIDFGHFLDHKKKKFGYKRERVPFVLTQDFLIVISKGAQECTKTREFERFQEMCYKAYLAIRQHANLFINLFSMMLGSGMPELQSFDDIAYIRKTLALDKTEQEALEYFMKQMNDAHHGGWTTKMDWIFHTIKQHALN

Experiments:
[1] = target: PI3K-γ (Homo sapiens, UniProt P48736); experiment: PI3K-gamma fluorescence polarization assay; conditions: read-out: IC50 PI3Kγ
[2] = target: PI3K-α (Homo sapiens, UniProt P42336); experiment: PI3K-alpha fluorescence polarization assay; conditions: read-out: IC50 PI3Kα

pIC50 [1] | pIC50 ([1]; listed as 10) | SMILES | pIC50 [2] | pIC50 ([2]; listed as 723)
7.70 |  | CNC(=O)c1ccc(NC(=O)Nc2ccc(-c3nc(N4CCOCC4)nc(N4CCOCC4)n3)cc2)cc1 [Example 70, 4-(3-(4-(4,6-dimorpholino-1,3,5-triazin-2-yl)phenyl)ureido)-N-methylbenzamide] |  | 
7.46 |  | O=C(Nc1ccc(-c2nc(N3CCOCC3)nc(N3CCOCC3)n2)cc1)Nc1cccnc1 [Example 2, 1-[4-(4,6-dimorpholin-4-yl-1,3,5-triazin-2-yl)phenyl]-3-pyridin-3-ylurea] | 8.70 | 
6.66 | 6.54 | O=C(Nc1ccc(Cl)cc1)Nc1ccc(-c2nc(N3CCOCC3)nc(N3CCOCC3)n2)cc1 [Example 8, 1-(4-chlorophenyl)-3-[4-(4,6-dimorpholin-4-yl-1,3,5-triazin-2-yl)phenyl]-urea] |  | 
7.42 |  | CC(O)c1ccc(NC(=O)Nc2ccc(-c3nc(N4CCOCC4)nc(N4CCOCC4)n3)cc2)cc1 (centres unmarked) [Example 52, 1-[4-(4,6-dimorpholin-4-yl-1,3,5-triazin-2-yl)phenyl]-3-[4-(1-hydroxyethyl)phenyl]urea] | 8.70 | 
 |  | COc1nc(-c2ccc(NC(=O)Nc3ccc(C(=O)N4CCN(C)CC4)cc3)cc2)nc(N2CCOCC2)n1 [Example 246, 1-[4-(4-methoxy-6-morpholin-4-yl-1,3,5-triazin-2-yl)phenyl]-3-{4-[(4-methylpiperazin-1-yl)carbonyl]phenyl}urea] | 9.00 | 8.89

SMILES | pIC50 [1] | pIC50 ([1]; listed as 10) | pIC50 [2] | pIC50 ([2]; listed as 723)
CC(C)Oc1nc(-c2ccc(NC(=O)Nc3ccc(C(=O)NC4CCN(C)CC4)cc3)cc2)nc(N2CCOCC2)n1 [Example 97, 4-({[4-(4-isopropoxy-6-morpholin-4-yl-1,3,5-triazin-2-yl)phenyl]carbamoyl}amino)-N-(1-methylpiperidin-4-yl)benzamide] | 7.66 |  | 8.70 | 
